# Apparent affinities of Ab-14 variants for a coronavirus HR2 peptide

Values reported by Li et al. 2023, doi:10.1038/s41467-023-39022-2 (FLAb copy).

All variants were tested on one target, the spike HR2 peptide PDVDLGDISGINAS (SARS-CoV-2).

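The parent was found by panning a naive human phage display library on the peptide. This is the validation round: designs drawn from the data on random variants, tested in the same kind of assay. Their group label is 14H_GPLM_Gibbs (GPLM: also part of the Gaussian process libraries; Gibbs: Gibbs sampling; a sequence that several methods proposed may carry one label only). The scFvs were displayed on barcoded MATa yeast, the peptide on MATalpha yeast. Mating (16 h, 30 °C) was followed by selection of diploids and sequencing of their barcodes. Each replicate has its own calibration line, from reference interactions of the BCL2 family. Mating was done six times.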

Ab-14 is the parent antibody, in scFv form: VH, then three GGGGS repeats, then VL. The light chain is unchanged in all variants.
VH: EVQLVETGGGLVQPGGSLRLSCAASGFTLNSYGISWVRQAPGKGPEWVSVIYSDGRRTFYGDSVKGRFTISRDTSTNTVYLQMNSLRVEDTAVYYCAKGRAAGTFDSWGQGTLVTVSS
VL: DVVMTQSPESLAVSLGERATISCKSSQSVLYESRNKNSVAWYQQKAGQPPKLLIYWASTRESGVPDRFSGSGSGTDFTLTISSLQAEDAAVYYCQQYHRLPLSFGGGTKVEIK

The parent's heavy chain CDRs are GFTLNSYGIS, VIYSDGRRTFYGDSVK, GRAAGTFDS; each variant's own CDRs replace them letter for letter.
Numbers give log10(Kd / nM), so 0 is 1 nM and 3 is 1 µM. Smaller is tighter.
A mean of the replicates is given; it leaves out those without a signal.
"nd" marks a missing value. The strain was present, yet no cells mated with the target were sequenced in that replicate, which points to weak or no binding.
Nonspecific signal, from three strains lacking the peptide, appeared in 1% of pairings of all heavy chain designs, centred on 2.08 (5% of these signals below 0.84); values are not corrected for it. Also given: how often the same scFv was detected with the empty control strains, with their mean in brackets.

CDR-H1	CDR-H2	CDR-H3	replicates, log10 nM	mean, log10 nM	control signals
GFTLNSYGIS	VIYSDGRRTFYTDDVK	GEAAGTFDS	1.05 0.78 0.98 1.15 1.34 1.44	1.12	0/18
GFTLESYGIS	VIYSDGRRTFYGDPVK	GRTAGTFDS	nd nd nd nd nd nd	nd	0/18
GFELNSYGIS	VIYSDGRRTFYQDSVK	GRLAGTFDS	1.27 1.90 nd nd nd nd	1.59	0/18
GFNLNSYGIS	VIYSDGRRTFYADSVK	GKVAGTFDS	-0.24 -0.19 0.05 0.59 -0.31 -0.35	-0.07	0/18
GFELNSYGIS	VIYADGRRTFYGDSVK	GRTAGTFDS	0.56 2.38 0.11 1.01 -0.14 0.42	0.72	0/18
GFELNSYGIS	VIYSDGRRTFYGDSVK	GMNAGTFDT	0.58 0.50 0.48 0.38 0.28 0.57	0.47	1/18 (3.47)
GFELNSYGIS	VIYSDGRRTFYIDSVK	GRHAGTFDS	nd nd nd nd nd 0.86	0.86	0/18
GFELNEYGIS	VIYSDGRRTFYGDSVK	GQAAGTFDS	0.04 0.56 0.25 -0.39 0.47 0.52	0.24	0/18
GFALNEYGIS	VIYSDGRRTFYGDSVK	GQAAGTFDS	0.76 0.71 0.85 0.95 0.46 0.88	0.77	0/18
GFSLNSYGIS	VIYSDGRRTFYHDSVK	GRQAGTFDS	nd -0.69 nd nd 1.88 -0.46	0.24	0/18
GFSLNEYGIS	VIYSDGRRTFYTDSVK	GKAAGTFDS	0.01 0.16 -0.23 0.51 -0.33 0.17	0.05	1/18 (2.05)
GFELNEYGIS	VIYSDGRRTFYGDSVK	GRQAGTFDS	0.10 -0.34 -0.11 -0.41 0.09 0.31	-0.06	0/18
GFTLNSYGIS	VIYSDGKRTFYSDSVK	GRQAGTFDT	0.22 0.56 0.27 0.93 0.24 0.79	0.50	0/18
GFSLNSYGIS	VIYSDGRRTFYDDSVK	GRNAGTFDS	0.26 0.14 0.25 -0.29 0.67 0.27	0.21	0/18
GFELNSYGIS	VIYSDGRRTFYADSVK	GQAAGTFDN	0.90 1.00 1.21 0.74 0.87 0.91	0.94	0/18
GFQLNEYGIS	VIYSDGRRTFYSDSVK	GRAAGTFDS	1.20 nd nd 1.76 nd nd	1.48	0/18
GFTLNSYGIS	VIYSDGRRTFYSDAVK	GEAAGTFDK	0.09 0.74 1.83 0.06 0.04 0.50	0.54	0/18
GFELNSYGIS	VIYSDGRRTFYSDSVK	GQVAGTFDS	0.55 -0.39 0.24 0.12 -0.03 0.34	0.14	1/18 (1.84)
GFSLNSYGIS	VIYSDGRRTFYVDSVK	GNAAGTFDQ	0.86 0.48 0.41 0.31 0.47 0.71	0.54	0/18
GFDLNSYGIS	VIYSDGRRTFYGDSVK	GRTAGTFDC	nd 1.21 nd nd nd nd	1.21	0/18
GFELNSYGIS	VIYSDGRRTFYTDSVK	GQVAGTFDS	0.30 -0.08 -0.19 0.57 -0.28 0.79	0.19	0/18
GFELNSYGIS	VIYSDGRRTFYGDSVK	GNVAGTFDS	0.09 -0.14 -0.47 -0.25 -0.33 -0.10	-0.20	0/18
GFTLNSYGIS	VIYSDGRRTFYGDSVK	GMNAGTFDT	1.76 1.32 0.99 1.10 0.71 1.34	1.20	0/18
GFSLNSYGIS	VIYSDGRRTFYADSVK	GHEAGTFDS	0.96 1.50 0.04 0.40 2.14 nd	1.01	0/18
GFDLNSYGIS	VIYSDGRRTFYGDHVK	GRTAGTFDS	0.61 0.62 0.59 0.24 0.09 0.57	0.45	0/18
GFTLNSYGIS	VIYSDGRRTFYGDDVK	GNEAGTFDS	0.00 1.23 0.04 0.35 -0.04 0.00	0.26	0/18
GFSLNEYGIS	VIYSDGRRTFYGDAVK	GKTAGTFDS	-0.04 -0.21 -0.24 -0.34 -0.45 -0.04	-0.22	0/18
GFTLNSYGIS	VIYSDGRRTFYIDSVK	GHAAGTFDT	1.03 1.15 1.22 2.27 nd 0.82	1.30	0/18
GFSLNSYGIS	VIYSDGRRTFYGDNVK	GEAAGTFDA	0.02 0.46 -0.14 -0.52 0.27 0.19	0.05	0/18
GFTLNSYGIS	VIYSDGRRTFYADSVK	GKEAGTFDT	0.12 -0.10 -0.23 0.16 -0.15 0.01	-0.03	2/18 (2.32)
GFELNSYGIS	VIYSDGRRTFYSDSVK	GRLAGTFDS	-0.24 -0.22 0.12 -0.49 -0.02 0.32	-0.09	0/18
GFDLNSYGIS	VIYSDGRRTFYGDSVK	GKTAGTFDV	0.24 0.08 -0.05 0.13 0.17 0.06	0.10	0/18
GFSLNSYGIS	VIYSDGRRTFYGDSVK	GHAAGTFDK	0.83 1.14 0.66 1.02 0.91 0.97	0.92	1/18 (2.63)
GFSLNSYGIS	VIYSDGKRTFYGDSVK	GRQAGTFDS	1.04 0.71 1.32 -0.11 0.29 0.66	0.65	0/18
GFELNSYGIS	VIYSDGRRTFYGDSVK	GWTAGTFDS	nd 0.43 0.05 -0.06 0.66 1.07	0.43	1/18 (0.50)
GFVLNEYGIS	VIYSDGRRTFYGDSVK	GKTAGTFDS	1.26 0.53 0.32 0.29 0.46 0.91	0.63	1/18 (2.02)
GFWLNSYGIS	VIYSDGRRTAYGDSVK	GRAAGTFDS	nd nd nd nd nd nd	nd	1/18 (0.08)
GFDLNSYGIS	VIYSDGRRTFYVDSVK	GRVAGTFDS	1.02 1.31 1.44 1.07 0.56 0.48	0.98	0/18
GFDLNSYGIS	VIYSDGKRTFYGDRVK	GRTAGTFDS	-0.12 0.41 -0.58 -0.93 -0.22 0.72	-0.12	1/18 (0.59)
GFNLNSYGIS	VIYSDGRRTFYVDDVK	GNAAGTFDS	0.14 0.05 -0.22 0.36 0.09 0.06	0.08	1/18 (2.96)
GFNLNSYGIS	VIYSDGRRTFYADSVK	GWVAGTFDS	0.32 0.14 -0.06 -0.40 0.88 -0.03	0.14	1/18 (3.38)
GFVLNSYGIS	VIYSDGRRTAYGDSVK	GRAAGTFDS	1.62 1.67 2.15 2.31 1.60 1.17	1.75	0/18
GFELNSYGIS	VIYSDGRRTFYADSVK	GKAAGTFDL	0.78 0.55 1.03 0.45 0.11 0.65	0.59	0/18
GFELNSYGIS	VIYSDGRRTFYADSVK	GKTAGTFDT	1.05 0.93 0.11 0.17 0.06 0.10	0.40	0/18
GFSLNSYGIS	VIYSDGRRTFYSDSVK	GWVAGTFDS	-0.13 -0.16 0.04 0.18 -0.16 -0.30	-0.09	0/18
GFTLNSYGIS	VIYSDGKRTFYGDSVK	GEAAGTFDK	1.07 2.22 1.01 1.65 1.79 1.68	1.57	0/18
KFTLNSYGIS	VIYADGRRTFYGDSVK	GEAAGTFDS	0.59 0.42 0.33 0.17 0.09 0.57	0.36	0/18
GFNLNSYGIS	VIYSDGRRTFYIDSVK	GRYAGTFDS	nd nd nd nd nd nd	nd	0/18
GFHLNSYGIS	VIYSDGRRTFYADSVK	GKEAGTFDS	nd nd 0.74 0.21 0.93 0.66	0.64	0/18

A selection of 6 entries from above:

CDR-H1	CDR-H2	CDR-H3	replicates, log10 nM	mean, log10 nM	control signals
GFELNSYGIS	VIYSDGRRTFYGDSVK	GWTAGTFDS	nd 0.43 0.05 -0.06 0.66 1.07	0.43	1/18 (0.50)
GFSLNSYGIS	VIYSDGRRTFYGDSVK	GHAAGTFDK	0.83 1.14 0.66 1.02 0.91 0.97	0.92	1/18 (2.63)
GFSLNEYGIS	VIYSDGRRTFYTDSVK	GKAAGTFDS	0.01 0.16 -0.23 0.51 -0.33 0.17	0.05	1/18 (2.05)
GFTLNSYGIS	VIYSDGRRTFYTDDVK	GEAAGTFDS	1.05 0.78 0.98 1.15 1.34 1.44	1.12	0/18
GFTLNSYGIS	VIYSDGRRTFYGDDVK	GNEAGTFDS	0.00 1.23 0.04 0.35 -0.04 0.00	0.26	0/18
GFDLNSYGIS	VIYSDGRRTFYGDHVK	GRTAGTFDS	0.61 0.62 0.59 0.24 0.09 0.57	0.45	0/18

The authors' rule: three or more of the six replicates give a measured affinity, fewer mean a poor binder.
A sequence measured in both rounds can read differently, since the two assays cover different ranges.